Values quoted from earlier work, collected in patent US5045452A, “Method for evaluating nephrotoxicity” (Brigham and Women's Hospital, priority 1988, dated 1991).

System: N-acetyl-beta-D-glucosaminidase
Conditions: exposed workers

## mercury
  urinary acetyl glucosaminidase excretion: elevated
